# Most compounds without a hit are left out; they make up all but 3.7% or so of the library.
# ClpP mod: qHTS Assay for Activators of ClpP; Potency, µM (doses to about 57.5 µM), for the others: at the highest dose activity change, negative = active; ATP-dependent Clp protease proteolytic subunit (Bacillus subtilis (strain 168)), P80244; hit rate 1.9% among 340,000; purified B. subtilis ClpP, FRET peptide cleavage, 20 min; active means well fitted falling curve with a large enough effect; inconclusive means small, poorly fitted or top-dose-only effect; inactive means no such curve, though single readings can be large or run the other way; further: potency means the concentration at half of the fitted maximal effect; the source files actives as falling curves though it sought activators and does not explain the sign; nearly all actives have a fitted effect of over 65% in size
#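 FRET quenching reversal measured ClpP activation: 10 microg/mL B. subtilis ClpP at pH 8 with the FRET-FV decapeptide, read at 430 nm after 320 nm excitation. The 20-min minus 0-min signal was scaled between DMSO/no-enzyme wells and ADEP (5.8 microM final).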
# A549 viability: counter-screen for Nrf2 inhibitors: cytotoxicity in A549 cells | A549 ARE-Fluc cells, CellTiter-Fluor viability, 18-24 h | Potency, µM (titrated, usually from 46 µM), for the others: at the top dose activity change, negative = cytotoxicity, most hits filed as inhibitors | hit rate 0.16% among 390,000 | AID 504648; further: potency means the concentration at half of the fitted maximal effect; on the % scale 0 is the no-effect control and ±100 the full control effect
#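 A549 ARE-Fluc cells in 5% FBS OPTI-MEM, 5000 cells/well, rested 2 h then exposed to compounds in concentration-response for 18-24 h at 37 °C. Viability by CellTiter-Fluor fluorescence (Ex 405/Em 525) after 30 min; luciferase luminescence (BugLite, 15 min, RT) read afterwards.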
# Nrf2 activator: Nrf2 pathway activation; hit rate 0.31% among 410,000; AID 624171; Potency, µM (highest dose often 46.1 µM), for inactives: top-dose activation, usual class: activators; AREc32 ARE-luciferase reporter (MCF7-derived line), luminescence, 24 h; further: potency means the concentration at half of the fitted maximal effect; % of control where 0% means no effect; nearly all actives have a fitted effect of over 65% in size
#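 Reporter line AREc32 (ARE-Fluc), seeded overnight in OPTI-MEM with 5% FBS; compound pin-transferred, 24 hr at 37 deg C, 5% CO2; luminescent read-out.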
# miR-21 reporter: raises the signal of a miR-21 reporter; 340,000 tested, under 10 active; HeLa miR-21 FLuc reporter, luciferase, 48 h; Potency, µM (highest dose often 38.3 µM), without a hit: top-dose reporter change, positive = more light; active = well fitted rising curve with a large enough effect; inconclusive = small, poorly fitted or top-dose-only effect; inactive = no such curve, though single readings can be large or run the other way;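 also: % of control where 0% means no effect; miR-21 action dims this reporter so a rising signal means less miR-21 action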
#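 Luminescence from a firefly luciferase reporter carrying a miR-21 binding site downstream, stably expressed under a CMV promoter in HeLa cells that make miR-21 endogenously, reports miRNA modulation after 48 h compound exposure up to approximately 40uM final.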
# Nrf2 inh: inhibitors of Nrf2 signaling | hit rate 2.1% among 360,000 | Potency, µM (highest dose often 46 µM), inactives show top-dose activity change, negative = inhibition, most hits filed as inhibitors | AID 504444 | A549 ARE-Fluc reporter, luciferase luminescence, 18-24 h; further: potency means the concentration at half of the fitted maximal effect; on the % scale 0 is the no-effect control and ±100 the full control effect; nearly all actives have a fitted effect of over 60% in size
#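 Reporter: ARE-Fluc in A549. Exposure: 18-24 h, 37 °C, 5% CO2, 5% FBS OPTI-MEM. Readouts: fluorescent cytotoxicity (CellTiter-Fluor), then luminescent Nrf2 signal after BugLite.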
# TCR act: T cell receptor activation. AID 504894. Potency, µM (series often up to 9.22 µM), for inactives: at the highest dose activation of IL-2 secretion, hits mostly activators. primary human leukocytes, anti-CD3, IL-2 HTRF, 48 h. 330,000 tested, under 10 active; further: % of control where 0% means no effect
#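 IL-2 produced over 48 hr by a-CD3 bead-stimulated primary human leukocytes exposed to compounds was detected with a homogeneous time-resolved FRET immunoassay, 665nm acceptor signal after 320nm excitation.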
# An asterisk follows results filed as active; ? = inconclusive; / = no result; [ ] = another dose, or the depositor's remark. Unless noted, the call rests on the fitted dose curve; in most records, active means well fitted curve in the direction sought with a large enough effect; inconclusive means small, poorly fitted or top-dose-only effect, or another doubt; inactive means no such curve, though single readings can be large; an effect the other way counts as inactive or inconclusive.
(1) c1ccc(Nc2cccc3ccccc23)cc1
(2) c1ccc(Nc2ccc3c4c(cccc24)CC3)cc1
(3) Cc1ccc(S(=O)(=O)NCc2ccccc2)cc1C(=O)NCC1CCCO1 (configuration not stated)
(4) COc1cccc(N2CC(C(=O)N3CCC4(CC3)CC(=O)c3ccccc3O4)CC2=O)c1 (configuration not stated)
(5) COc1ccc(OC)c(S(=O)(=O)N2CCC3(CC2)CC(=O)c2ccccc2O3)c1
(6) O=C1CC2(CCN(C(=O)C3CC(=O)N(c4ccccc4)C3)CC2)Oc2ccccc21 (configuration not stated)
assay / entry	1	2	3	4	5	6
ClpP mod	3.8%	11.2µM*	0.9%	28.2µM*	?	31.6µM*
A549 viability	-2.6%	-1.1%	0.7%	-1.6%	4.0%	-0.3%
Nrf2 activator	-0.9%	5.7%	0.2%	3.5%	0.2%	-0.3%
miR-21 reporter	/	-10.5%	/	/	/	/
Nrf2 inh	20.8%	18.7%	1.2%	?	22.6%	-5.3%
TCR act	-38.8%	4.2%[46.1 µM]	2.1%	0.3%	1.2%	3.3%

(7) O=C(C1CC(=O)N(c2ccccc2)C1)N1CCCCCC1 (configuration not stated)
(8) CSc1ccc2[nH]c(=O)cc(C)c2c1
(9) CCOC(=O)c1sc2nc(C)cc(C)c2c1N
(10) CCCCOC(=O)c1sc2nc(C)cc(C)c2c1N
(11) Cc1cc(C)c2c(N)c(C(=O)Nc3nccs3)sc2n1
(12) COCc1cc(C)nc2sc(C(=O)Nc3nccs3)c(N)c12
assay / entry	7	8	9	10	11	12
ClpP mod	0.3%	35.5µM*	28.2µM*	/	35.5µM*	-2.4%
A549 viability	-0.9%	-2.8%	5.3%	1.8%	5.6%	6.0%
Nrf2 activator	-2.4%	2.0%	10.1%	8.7%	-0.5%	6.2%
miR-21 reporter	-16.8%	-18.2%	-47.2%	-92.3%	21.0%	-68.6%
Nrf2 inh	2.6%	-23.4%	-2.5%	-0.5%	?	7.6%
TCR act	-0.5%	4.8%	-10.5%	1.1%	3.0%	1.8%

(13) CCc1noc(C)c1C(=O)OC(C)C(=O)Nc1ccc(Cl)cn1 (configuration not stated)
(14) Cc1ccc(NC2=Nc3ccccc3N3C2=Nc2c(c(C)nn2-c2ccccc2)C3c2ccc(O)c(O)c2)cc1 (configuration not stated)
(15) COc1ccc(/C=N/Nc2ccccn2)cc1OC
(16) COc1cc(/C=N/Nc2ccccn2)ccc1O
(17) C[N+]1(CC(=O)c2ccc3c(c2)CCCC3)CCOCC1
(18) COc1ccccc1C(=O)Oc1ccc2c(c1)O/C(=C\c1ccncc1)C2=O
assay / entry	13	14	15	16	17	18
ClpP mod	0.9%	-3.8%	/	/	4.8%	-1.7%
A549 viability	15.9%	?	-8.1%	-3.6%	/	4.2%
Nrf2 activator	-0.7%	-1.5%	2.7%	8.91µM*	/	?
miR-21 reporter	/	26.6%	-58.4%	-53.1%	/	-5.1%
Nrf2 inh	4.6%	18.4µM*	0.3%	?	/	-2.7%
TCR act	4.2%	-7.1%	-3.1%	0.9%	/	-7.6%[46.1 µM]

(19) COc1cc2c(c(OC)c1OC)C(=O)C(=Cc1ccccc1)O2
(20) O=C(CN1C(=O)S/C(=C\c2cccc(Cl)c2)C1=O)NC1C=CS(=O)(=O)C1 (configuration not stated)
(21) O=C(CN1C(=O)/C(=C/c2cccc(Cl)c2)SC1=S)NC1C=CS(=O)(=O)C1 (configuration not stated)
(22) O=c1oc2cc(OCc3nn[nH]n3)ccc2c2c1CCCC2
(23) Cc1cc2oc(=O)c3c(c2cc1OCc1nn[nH]n1)CCCC3
(24) Cc1oc(=O)c(NC(=O)c2ccccc2)cc1C(=O)c1ccccc1
assay / entry	19	20	21	22	23	24
ClpP mod	-4.7%	-16.5%	/	23.8%	25.1µM*	-0.8%
A549 viability	6.0%	1.1%	1.1%	-3.8%	6.8%	/
Nrf2 activator	15.8µM*	4.8%	14.1µM*	-0.2%	0.4%	?
miR-21 reporter	/	-1.6%	-2.0%	1.0%	-1.8%	21.7%
Nrf2 inh	?	0.5%	10.6%	-2.4%	20.9%	19.3%
TCR act	-6.8%	-6.2%	1.5%	-2.4%	-8.5%	-2.3%

(25) CC(=O)c1cc(NC(=O)c2ccccc2)c(=O)oc1C
(26) COc1ccccc1/C=C/C(=O)c1c2c(c(C)[nH]c1=O)CCCC2
(27) O/N=C/c1cn(-c2ccccc2)nc1-c1ccc2c(c1)OCCO2
(28) OCc1cn(-c2ccccc2)nc1-c1ccc2c(c1)OCCO2
(29) COc1ccc(-c2nn(-c3ccccc3)cc2CO)cc1OC
(30) Cc1ccc(S(=O)(=O)CCC(=O)N2CCN(c3ccc([N+](=O)[O-])cc3)CC2)cc1
assay / entry	25	26	27	28	29	30
ClpP mod	/	0.0%	-4.0%	28.2µM*	11.2µM*	-3.9%
A549 viability	-5.0%	?	?	-11.7%	-5.7%	-5.1%
Nrf2 activator	12.6µM*	18.3%	-0.4%	0.3%	-0.1%	1.7%
miR-21 reporter	-0.7%	10.0%	-45.3%	7.4%	-10.4%	-1.4%
Nrf2 inh	2.9%	16.4µM*	24.7%	?	-19.0%	20.6µM*
TCR act	3.5%	/	-1.5%	2.8%	3.5%	-1.1%

# A different layout for part of the listing above.
# Values run as follows: ClpP mod | A549 viability | Nrf2 activator | miR-21 reporter | Nrf2 inh | TCR act
(27) O/N=C/c1cn(-c2ccccc2)nc1-c1ccc2c(c1)OCCO2
  -4.0% | ? | -0.4% | -45.3% | 24.7% | -1.5%
(28) OCc1cn(-c2ccccc2)nc1-c1ccc2c(c1)OCCO2
  28.2µM* | -11.7% | 0.3% | 7.4% | ? | 2.8%
(29) COc1ccc(-c2nn(-c3ccccc3)cc2CO)cc1OC
  11.2µM* | -5.7% | -0.1% | -10.4% | -19.0% | 3.5%
(30) Cc1ccc(S(=O)(=O)CCC(=O)N2CCN(c3ccc([N+](=O)[O-])cc3)CC2)cc1
  -3.9% | -5.1% | 1.7% | -1.4% | 20.6µM* | -1.1%

# (more compounds)
(31) CC1(C(=O)N2CCN(c3ccccc3)CC2)CC1(Cl)Cl (configuration not stated)
(32) CC1(C(=O)N2CCN(c3ccc([N+](=O)[O-])cc3)CC2)CC1(Cl)Cl (configuration not stated)
(33) Cc1ccc2nc(-c3cccc(N)c3)oc2c1
(34) Cc1ccc2nc(-c3cccc(-c4nc5ccc(C)cc5o4)n3)oc2c1
(35) Cc1ccc2nc(-c3ccc(O)cc3)oc2c1
(36) Cc1ccc(CSc2nccc(-c3c(C)nc4ccccn34)n2)cc1
assay / entry	31	32	33	34	35	36
ClpP mod	/	1.1%	14.1µM*	?	/	-8.4%
A549 viability	17.5%	-24.8%	2.3%	-1.4%	0.6%	-19.8%
Nrf2 activator	-0.6%	2.9%	-0.4%	/	-0.1%	0.1%
miR-21 reporter	-0.6%	21.0%	13.7%	/	14.8%	26.8%
Nrf2 inh	-5.3%	18.4µM*	?	5.0%	6.51µM*	8.2µM*
TCR act	-4.2%	/	-3.6%	/	0.2%	-4.2%

(37) Cc1ccc(CSc2ncn(-c3ccccc3)n2)cc1
(38) O=C(Nc1ccc(C(F)(F)F)cc1)c1csc(-c2ccncc2)n1
(39) O=C(Nc1ccccc1)c1csc(-c2ccccc2)n1
(40) CC(C)c1ccc(NC(=O)COC(=O)[C@@H]2CCCN2C(=O)c2cccs2)cc1
(41) Cc1ccccc1N=C(c1ccccc1)C1C(=O)c2ccccc2C1=O
(42) CC(c1ccc(Cl)cc1)n1c(-c2ccc3ccccc3n2)n[nH]c1=S (configuration not stated)
(43) CC(c1ccc(F)cc1)n1c(-c2ccc3ccccc3n2)n[nH]c1=S (configuration not stated)
(44) CCNc1nc(NCC)nc(NC(N)=S)n1
(45) C1=Cc2ccccc2/C1=C\c1cc2c3c(c1)CCCN3CCC2
assay / entry	37	38	39	40	41	42	43	44	45
ClpP mod	-1.4%	/	/	1.1%	1.4%	-5.0%	-1.5%	28.2µM*	-4.7%
A549 viability	19.6%	-10.6%	-2.5%	1.9%	/	?	-11.9%	6.0%	/
Nrf2 activator	1.0%	8.1%	10.0%	3.4%	12.7%	0.1%	-0.4%	1.1%	/
miR-21 reporter	-39.2%	8.8%	-46.5%	/	/	0.7%	-9.6%	-14.3%	/
Nrf2 inh	21.9%	18.4µM*	?	17.3%	/	18.4µM*	?	5.9%	/
TCR act	-9.0%	-14.2%	3.2%	-0.1%	/	0.4%	/	5.7%	/
